Data from ChEMBL document CHEMBL4376885 (J Med Chem, 2020).

Experiments:
Format in all cases: ADME, organism-based
Details in all cases: in vivo
[1] = Oral bioavailability in Kunming mouse at 10 mg/kg by LC-MS/MS analysis
[2] = Clearance in Wistar rat at 2 mg/kg, iv by LC-MS/MS analysis
[3] = Oral bioavailability in Wistar rat at 10 mg/kg by LC-MS/MS analysis
[4] = AUC (0 to infinity) in Wistar rat at 2 mg/kg, iv by LC-MS/MS analysis; design: dose 2 mg/kg, route intravenous, time infinity

With `Cc1cc(/C=C/C#N)cc(C)c1Oc1nc(Nc2ccc(C#N)c(F)c2)nc2ccsc12` as the compound, how does the F [1] read?
Its F is 5.38%.

And the CL [2]?
Its CL is 3.83 mL/min/kg.

And the F [3]?
Its F is 6.31%.

And the AUC [4]?
The AUC was 88400 ng·h/mL.
